Source: patent US20050158775A1, “Novel plamid DNA comprising reoprter gene DNA and use of the same” (priority 1997, published 2005)

Protein sequences, listed by entry. Tags and fused reporters are not part of them. Residues count along the entry.
UniProt P37231, 204-505, stated change not applied: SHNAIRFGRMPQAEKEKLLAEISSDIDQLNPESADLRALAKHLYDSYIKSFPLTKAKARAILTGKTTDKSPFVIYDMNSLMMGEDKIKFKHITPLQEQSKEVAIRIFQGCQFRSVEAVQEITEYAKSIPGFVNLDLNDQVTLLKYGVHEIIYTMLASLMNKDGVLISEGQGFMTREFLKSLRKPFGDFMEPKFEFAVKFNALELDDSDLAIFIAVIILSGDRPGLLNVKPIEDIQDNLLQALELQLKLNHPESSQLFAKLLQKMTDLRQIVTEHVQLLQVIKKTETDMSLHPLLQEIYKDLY

What was measured:
[1] = molecular target: T1, Gal4-human PPAR α chimeric receptor protein (Homo sapiens, UniProt Q07869); format: cell-based
T1 construct: the 167th serine (Ser) to the 468th tyrosine (Tyr) of the human PPAR α receptor; expressed in transfected cells
T1 sequence (Q07869 167-468): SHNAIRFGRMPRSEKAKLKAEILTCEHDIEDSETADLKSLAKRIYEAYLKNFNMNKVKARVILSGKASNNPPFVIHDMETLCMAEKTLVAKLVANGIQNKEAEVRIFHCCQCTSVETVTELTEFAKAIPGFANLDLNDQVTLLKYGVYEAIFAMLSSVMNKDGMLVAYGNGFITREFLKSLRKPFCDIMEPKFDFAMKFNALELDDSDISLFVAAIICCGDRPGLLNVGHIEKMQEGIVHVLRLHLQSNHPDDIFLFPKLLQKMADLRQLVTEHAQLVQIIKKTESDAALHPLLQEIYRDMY

[2] = molecular target: T2, Gal4-human PPAR δ chimeric receptor protein (Homo sapiens, UniProt Q03181); format: cell-based
T2 construct: the 139th serine (Ser) to the 441st tyrosine (Tyr) of the human PPAR δ receptor; expressed in transfected cells
T2 sequence (Q03181 139-441): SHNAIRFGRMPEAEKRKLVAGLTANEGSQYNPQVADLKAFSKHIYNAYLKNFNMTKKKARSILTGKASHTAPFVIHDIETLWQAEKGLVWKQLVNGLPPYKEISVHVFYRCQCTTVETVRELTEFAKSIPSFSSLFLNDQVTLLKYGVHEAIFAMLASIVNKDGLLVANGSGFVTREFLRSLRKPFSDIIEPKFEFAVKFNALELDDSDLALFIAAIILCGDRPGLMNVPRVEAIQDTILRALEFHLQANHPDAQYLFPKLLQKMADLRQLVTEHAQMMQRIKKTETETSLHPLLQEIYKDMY

[3] = molecular target: Gal4-human PPAR γ chimeric receptor protein (Homo sapiens, UniProt P37231)

## CCCCC[C@H](O)/C=C/[C@@H]1[C@H]2C/C(=C/CCCC(=O)O)C[C@H]2C[C@H]1O [carbacyclin]
[1]
  cell death of PPAR α ligand-responsive cells: cause dose-dependent cell death
[2]
  cell death of PPAR δ ligand-responsive cells: cause dose-dependent cell death
[3]
  cell death of PPAR γ ligand-responsive cells: do not cause cell death
